Data from ChEMBL document CHEMBL1777750, “Design strategies to target crystallographic waters applied to the Hsp90 molecular chaperone” (Bioorg Med Chem Lett, 2011).

Test: Binding affinity to HSP90 by isothermal titration calorimetry assay

COc1cc(-c2cc(C)nc(N)n2)c(Cl)cc1Cl
Kd: 84 nM
